Article PMC8669716 (ACS Pharmacology & Translational Science, 2021)
pIC50: −log10 of the molar value.

Protein sequences, listed by entry. Tags and fused reporters are not part of them.
UniProt P27338, whole entry: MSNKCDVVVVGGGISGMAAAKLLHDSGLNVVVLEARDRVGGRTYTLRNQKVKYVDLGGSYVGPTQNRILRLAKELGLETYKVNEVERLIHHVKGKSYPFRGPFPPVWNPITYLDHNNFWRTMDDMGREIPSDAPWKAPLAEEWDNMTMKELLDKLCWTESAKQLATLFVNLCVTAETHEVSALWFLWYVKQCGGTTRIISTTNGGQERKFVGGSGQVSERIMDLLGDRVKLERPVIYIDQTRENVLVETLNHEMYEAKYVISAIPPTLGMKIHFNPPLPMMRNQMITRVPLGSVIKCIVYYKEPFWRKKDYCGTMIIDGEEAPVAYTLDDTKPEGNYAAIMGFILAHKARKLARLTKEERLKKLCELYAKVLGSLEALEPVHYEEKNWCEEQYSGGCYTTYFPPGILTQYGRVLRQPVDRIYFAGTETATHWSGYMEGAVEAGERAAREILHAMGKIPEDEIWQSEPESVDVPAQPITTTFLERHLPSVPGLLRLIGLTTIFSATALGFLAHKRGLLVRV

Target: human MAO-B (Homo sapiens, UniProt P27338)
Assay: MAO-B kynuramine assay

## c1ccc([C@@H]2C[C@H]2NC2CCNCC2)cc1 [OG-668]
  pIC50: < 4.00
